From PubChem BioAssay AID1530 (NMMLSC, 2009)
The list shows a part of the results, in another mix than the full data. Active and inactive are the calls of the source. Rule as the data show it: active = percent response above about 24% (passing the limit was not always enough); inactive = the rest.

test system: MEKK2 (MAP3K2) mutant PB1 domain binding to MEK5, human; experiment: MEK5 binding signal on mutant MEKK2 PB1, primary screen, biochemical, multiplex bead flow cytometry, Alexa488-MEK5 (AID 1530); details: at 10 µM, active compounds read high

Row | Structure (SMILES) | percent response
1 | O=[N+]([O-])c1cc([N+](=O)[O-])c(Nc2nnnn2CCO)c([N+](=O)[O-])c1 | inactive: 14%
2 | CCOC(=O)C(CC)C1=NC(C)(C)Cc2ccccc21.O=[N+]([O-])c1cc([N+](=O)[O-])c(O)c([N+](=O)[O-])c1 (stereo unspecified) | inactive: 25%
3 | CCCOc1ccc(NP(C)(=O)Oc2ccc(Cl)cc2)cc1 (stereo unspecified) | inactive: -1%
4 | CP(=O)(Nc1ccc(SC(F)(F)F)cc1)Oc1ccccc1 (stereo unspecified) | inactive: 0%
5 | COc1ccccc1OP(C)(=O)Nc1c(C)cccc1C (stereo unspecified) | inactive: -17%
6 | CN1CCCCC1COC(=O)C1(O)c2ccccc2CCc2ccccc21 (stereo unspecified) | inactive: 3%
7 | O=[N+]([O-])c1cc([N+](=O)[O-])c(-n2nnc3ccccc32)c([N+](=O)[O-])c1 | inactive: -5%
8 | Cc1nc2ccc3ccccc3c2s1.O=[N+]([O-])c1cc([N+](=O)[O-])c(O)c([N+](=O)[O-])c1 | inactive: 6%
9 | Cc1cc(C)cc(OP(C)(=O)Nc2ccc(C)cc2C)c1 (stereo unspecified) | inactive: 8%
10 | CCOC(=O)c1ccc(NP(C)(=O)Oc2cc(C)cc(C)c2)cc1 (stereo unspecified) | inactive: 0%
11 | COc1ccccc1OP(C)(=O)Nc1cccc(Br)c1 (stereo unspecified) | inactive: -15%
12 | Cc1cc(C)cc(OP(C)(=O)Nc2ccccn2)c1 (stereo unspecified) | inactive: 1%
13 | CP(=O)(Nc1cccc(Br)c1)Oc1ccccc1 (stereo unspecified) | inactive: 2%
14 | Cc1ccc(C)c(NP(C)(=O)Oc2ccccc2)c1 (stereo unspecified) | inactive: 4%
15 | O=C(O)c1cccc(Nc2c([N+](=O)[O-])cc([N+](=O)[O-])cc2[N+](=O)[O-])c1 | inactive: -2%
16 | CC1=NCCc2c1[nH]c1ccccc21.O=[N+]([O-])c1cc([N+](=O)[O-])c(O)c([N+](=O)[O-])c1 | inactive: 14%
17 | CC(C)(C)c1ccc(OP(C)(=O)Nc2ccc(SC(F)(F)F)cc2)cc1 (stereo unspecified) | inactive: -2%
18 | Cc1cccc(C)c1OP(C)(N)=O (stereo unspecified) | inactive: -3%
19 | O=[N+]([O-])c1ccc2c(c1)C=Nc1ccccc1O2 | inactive: 0%
20 | COc1ccccc1OP(C)(=O)Nc1cc(Cl)ccc1C (stereo unspecified) | inactive: -6%
21 | Cc1cc(C)cc(OP(C)(N)=O)c1 (stereo unspecified) | inactive: -2%
22 | CCOC(=O)c1ccc(NP(C)(=O)Oc2ccccc2)cc1 (stereo unspecified) | inactive: -1%
23 | COc1ccccc1OP(C)(=O)Nc1ccc(C)cc1 (stereo unspecified) | inactive: 1%
24 | CCN(CC)CCCOC(=O)C(O)(c1ccccc1)c1ccccc1 | inactive: -13%
25 | CP(=O)(NC(=O)Nc1ccccc1)Oc1ccccc1 (stereo unspecified) | inactive: -3%
26 | CCc1ccc(OP(C)(=O)N2CCN(c3ccc([N+](=O)[O-])cc3)CC2)cc1 (stereo unspecified) | inactive: -19%
